The values below come from patent US5041542A, “Substituted pyrimido[5,4-d]pyrimidine nucleosides” (Nucleic Acid Research Institute, priority 1988, dated 1991).

The assay has as its system adenosine deaminase. Conditions: 1 μM, prior addition.

As for `OC[C@H]1O[C@@H](n2cnc3c2N=CNC[C@H]3O)[C@H](O)[C@@H]1O` [coformycin], the “prevention of the deamination of ARPP” value is given as “completely prevented the deamination of ARPP”.
